# Laboratory results taken from patent publication EP0440303A1 (PROBICOM RESEARCH B.V., priority 1990, dated 1991).
# Protein sequences, listed by entry. Tags and fused reporters are not part of them.
# UniProt P0C2T7, whole entry: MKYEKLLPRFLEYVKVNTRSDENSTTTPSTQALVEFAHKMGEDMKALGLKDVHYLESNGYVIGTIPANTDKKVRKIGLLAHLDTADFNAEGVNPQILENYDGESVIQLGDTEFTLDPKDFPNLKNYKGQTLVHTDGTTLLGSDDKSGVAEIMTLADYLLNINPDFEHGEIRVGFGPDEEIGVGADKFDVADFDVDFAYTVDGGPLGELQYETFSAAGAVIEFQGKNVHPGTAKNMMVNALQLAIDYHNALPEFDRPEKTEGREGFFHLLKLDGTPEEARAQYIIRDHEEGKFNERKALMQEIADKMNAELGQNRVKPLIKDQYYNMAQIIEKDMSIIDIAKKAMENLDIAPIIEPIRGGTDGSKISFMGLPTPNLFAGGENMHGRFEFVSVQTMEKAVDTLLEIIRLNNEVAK
# Molecular target: tripeptidase of L.lactis subsp. cremoris Wg2 (Lactococcus lactis subsp. cremoris, UniProt P0C2T7)
# Experiment: Effects of chemical agents on the peptidase activity (leu3 hydrolysis)
# Type: biochemical
# Settings: reagent 0.1 mM; 0.84 μg enzyme/ml, 10 min at pH 7 (20°C) before leu3 was added; none = 100
structure (smiles),measurement,value
O=[As]c1ccccc1 (stereo not shown),relative activity (%),118%
